From the supplement of paper PMC11403291

Columns and labels:
ALDH1A3 = ALDH1A3 (UniProt P47895); assay: IC50 of competition for binding to PARP-centric bead matrix; settings: affinity matrix: PARP family-centric bead mix; lysate: MDA-MB-231
BICRA = BICRA (UniProt Q9NZM4); assay: as above; settings: affinity matrix: PARP family-centric bead mix; lysate: MDA-MB-231
TEX264 = TEX264 (UniProt Q9Y6I9); assay: as above; settings: affinity matrix: PARP family-centric bead mix; lysate: MDA-MB-231
UniProt Q8TF76 = assay: as above; settings: affinity matrix: PARP family-centric bead mix; lysate: MDA-MB-231
UniProt Q8WWA0 = assay: IC50 of competition for binding to immobilized-niraparib matrix; settings: affinity matrix: immobilized niraparib (NHS-Sepharose); lysate: 1:1:1:1 mix of HEK293, K-562, placenta, HepG2 Princen
ADCK4 = ADCK4 (UniProt Q96D53); assay: apparent dissociation constant pKd app (kinobead competition) (-log10(M)); higher = stronger binding
BMPR2 = BMPR2 (UniProt Q13873); assay: as above
BRSK1 = BRSK1 (UniProt Q8TDC3); assay: as above
CHUK = CHUK (UniProt O15111); assay: as above
CSNK2A1 = CSNK2A1 (UniProt P68400); assay: as above
CSNK2A2 = CSNK2A2 (UniProt P19784); assay: as above
EIF2AK1 = EIF2AK1 (UniProt Q9BQI3); assay: as above
EPHB6 = EPHB6 (UniProt O15197); assay: as above
KIT = KIT (UniProt P10721); assay: as above
PCTK1 = PCTK1 (UniProt Q00536); assay: as above
PDIK1L = PDIK1L (UniProt Q8N165); assay: as above
PHKG2 = PHKG2 (UniProt P15735); assay: as above
PRKACA = PRKACA (UniProt P17612); assay: as above
SGK2 = SGK2 (UniProt Q9HBY8); assay: as above
CDK8 = CDK8 (UniProt P49336); assay: IC50 of competition for binding to PARP-centric bead matrix; settings: affinity matrix: PARP family-centric bead mix; lysate: MDA-MB-231
UniProt Q9H2K2 = assay: as above; settings: affinity matrix: PARP family-centric bead mix; lysate: MDA-MB-231
ALDH1A1 = ALDH1A1 (UniProt P00352); assay: IC50 of competition for binding to immobilized-niraparib matrix; settings: affinity matrix: immobilized niraparib (NHS-Sepharose); lysate: 1:1:1:1 mix of HEK293, K-562, placenta, HepG2 Princen
ECH1 = ECH1 (UniProt Q13011); assay: as above; settings: affinity matrix: immobilized niraparib (NHS-Sepharose); lysate: 1:1:1:1 mix of HEK293, K-562, placenta, HepG2 Princen
PARP14 = PARP14 (UniProt Q460N5); assay: as above; settings: affinity matrix: immobilized niraparib (NHS-Sepharose); lysate: 1:1:1:1 mix of HEK293, K-562, placenta, HepG2 Princen
UniProt P19784 = assay: as above; settings: affinity matrix: immobilized niraparib (NHS-Sepharose); lysate: 1:1:1:1 mix of HEK293, K-562, placenta, HepG2 Princen
UniProt Q9Y233 = assay: as above; settings: affinity matrix: immobilized niraparib (NHS-Sepharose); lysate: 1:1:1:1 mix of HEK293, K-562, placenta, HepG2 Princen
BMX = BMX (UniProt P51813); assay: apparent dissociation constant pKd app (kinobead competition) (-log10(M)); higher = stronger binding
BRSK2 = BRSK2 (UniProt Q8IWQ3); assay: as above
LATS2 = LATS2 (UniProt Q9NRM7); assay: as above
MAP3K9 = MAP3K9 (UniProt P80192); assay: as above
MAPK10 = MAPK10 (UniProt P53779); assay: as above
MST1R = MST1R (UniProt Q04912); assay: as above
PCTK3 = PCTK3 (UniProt Q07002); assay: as above
RPS6KA6 = RPS6KA6 (UniProt Q9UK32); assay: as above
TAOK2 = TAOK2 (UniProt Q9UL54); assay: as above
ARAF = ARAF (UniProt P10398); assay: as above
DYRK1B = DYRK1B (UniProt Q9Y463); assay: as above
STK11 = STK11 (UniProt Q15831); assay: as above

IC50 (ALDH1A3)	IC50 (BICRA)	IC50 (TEX264)	IC50 (UniProt Q8TF76)	IC50 (UniProt Q8WWA0)	apparent dissociation constant pKd app (-log10) (ADCK4)	apparent dissociation constant pKd app (-log10) (BMPR2)	apparent dissociation constant pKd app (-log10) (BRSK1)	apparent dissociation constant pKd app (-log10) (CHUK)	apparent dissociation constant pKd app (-log10) (CSNK2A1)	apparent dissociation constant pKd app (-log10) (CSNK2A2)	apparent dissociation constant pKd app (-log10) (EIF2AK1)	apparent dissociation constant pKd app (-log10) (EPHB6)	apparent dissociation constant pKd app (-log10) (KIT)	apparent dissociation constant pKd app (-log10) (PCTK1)	apparent dissociation constant pKd app (-log10) (PDIK1L)	apparent dissociation constant pKd app (-log10) (PHKG2)	apparent dissociation constant pKd app (-log10) (PRKACA)	apparent dissociation constant pKd app (-log10) (SGK2)	IC50 (CDK8)	IC50 (UniProt Q9H2K2)	IC50 (ALDH1A1)	IC50 (ECH1)	IC50 (PARP14)	IC50 (UniProt P19784)	IC50 (UniProt Q9Y233)	apparent dissociation constant pKd app (-log10) (BMX)	apparent dissociation constant pKd app (-log10) (BRSK2)	apparent dissociation constant pKd app (-log10) (LATS2)	apparent dissociation constant pKd app (-log10) (MAP3K9)	apparent dissociation constant pKd app (-log10) (MAPK10)	apparent dissociation constant pKd app (-log10) (MST1R)	apparent dissociation constant pKd app (-log10) (PCTK3)	apparent dissociation constant pKd app (-log10) (RPS6KA6)	apparent dissociation constant pKd app (-log10) (TAOK2)	apparent dissociation constant pKd app (-log10) (ARAF)	apparent dissociation constant pKd app (-log10) (DYRK1B)	apparent dissociation constant pKd app (-log10) (STK11)	SMILES
> 30 µM	> 30 µM	> 30 µM	> 30 µM	> 30 µM	< 4.5	< 4.5	< 4.7	< 4.5	< 4.5	< 4.6	< 4.5	< 4.6	< 4.5	< 4.5	< 4.6	< 4.5	< 4.5	< 4.5	–	–	–	–	–	–	–	–	–	–	–	–	–	–	–	–	–	–	–	O=C(c1cc(Cc2n[nH]c(=O)c3ccccc23)ccc1F)N1CCN(C(=O)C2CC2)CC1 [Olaparib]
1.9 µM	–	–	1.5 µM	–	–	< 4.5	–	–	–	–	–	–	–	–	< 4.6	–	–	–	> 30 µM	> 30 µM	1.5 µM	4.81 µM	> 30 µM	4.8 µM	13 µM	< 4.7	< 4.7	< 4.5	< 4.8	< 4.8	< 4.6	< 4.6	< 4.7	< 4.5	–	–	–	NC(=O)c1cccc2cn(-c3ccc([C@@H]4CCCNC4)cc3)nc12 [Niraparib]
–	> 30 µM	> 30 µM	–	> 30 µM	–	–	< 4.7	< 4.5	< 4.5	< 4.6	–	< 4.6	–	< 4.5	–	–	–	–	> 30 µM	0.0155 µM	> 30 µM	> 30 µM	> 30 µM	> 30 µM	> 30 µM	–	–	–	–	–	–	< 4.6	–	< 4.5	< 4.5	< 4.6	< 4.5	Cn1ncnc1[C@H]1c2n[nH]c(=O)c3cc(F)cc(c23)N[C@@H]1c1ccc(F)cc1 [Talazoparib]
